The results in this text go back to patent publication US20150148256A1, “BIOLUMINESCENCE IMAGING-BASED SCREENING ASSAY AND INHIBITORS OF ABCG2” (THE JOHNS HOPKINS UNIVERSITY, priority 2008, published 2015).

Sequences of proteins named here, by UniProt entry; tags and fusion partners are left off. A change or cut given only in a name is not applied to a line headed by its entry.
UniProt Q9UNQ0: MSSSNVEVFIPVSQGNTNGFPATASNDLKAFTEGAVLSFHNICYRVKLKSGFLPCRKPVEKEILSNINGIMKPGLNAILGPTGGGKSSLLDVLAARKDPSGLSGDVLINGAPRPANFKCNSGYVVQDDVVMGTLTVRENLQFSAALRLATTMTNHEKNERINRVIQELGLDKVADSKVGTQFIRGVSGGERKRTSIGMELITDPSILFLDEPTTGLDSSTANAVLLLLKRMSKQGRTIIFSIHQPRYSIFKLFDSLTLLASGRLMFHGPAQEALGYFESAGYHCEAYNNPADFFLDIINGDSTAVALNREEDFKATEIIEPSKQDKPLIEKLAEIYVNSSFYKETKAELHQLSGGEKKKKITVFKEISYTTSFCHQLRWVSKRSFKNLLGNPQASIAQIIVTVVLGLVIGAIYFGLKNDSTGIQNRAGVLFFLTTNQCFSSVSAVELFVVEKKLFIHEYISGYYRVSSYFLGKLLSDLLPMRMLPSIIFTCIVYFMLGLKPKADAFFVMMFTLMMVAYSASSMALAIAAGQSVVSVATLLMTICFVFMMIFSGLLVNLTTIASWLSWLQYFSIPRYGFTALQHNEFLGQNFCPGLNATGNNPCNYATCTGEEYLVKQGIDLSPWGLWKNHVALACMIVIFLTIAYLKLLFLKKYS

This data set deals with ABCG2 (Homo sapiens, UniProt Q9UNQ0).

For the substance thiethylperazine malate, the “Fold (BLI enhancement, S/B ratio over control)” value worked out at 2.6 fold.
